The values that follow come from US20040229290A1 (priority 2003, published 2004).

The conditions of data set [1]: read-out: affinities of wild-type receptors for cognate ligands; cited from earlier work.
The format of data set [2] is physicochemical. Conditions: pH 7.

For “glucose-binding protein [GBP, reference compound]”, the Kd in data set [1] was 500 nM. In addition, in data set [2], the Tm was 59 °C.
